Earlier results as cited in patent US8580735B2.

System: complement activation
Details: relative to compstatin amidated at the C-terminus; based on published data

For `CC[C@H](C)[C@H](NC(C)=O)C(=O)N[C@H]1CSSC[C@@H](C(=O)N[C@H](C(N)=O)[C@@H](C)O)NC(=O)[C@H](CCCNC(=N)N)NC(=O)[C@H](Cc2cnc[nH]2)NC(=O)[C@H](Cc2cnc[nH]2)NC(=O)CNC(=O)[C@H](Cc2c[nH]c3ccccc23)NC(=O)[C@H](CC(=O)O)NC(=O)[C@H](CCC(N)=O)NC(=O)[C@H](C(C)C)NC(=O)[C@H](C(C)C)NC1=O`, the Activity over compstatin is listed as 3 × more.
